Where two headings read alike, the source gives them in different places.
Tests used:
Secale cereale = conditions: useful plant Secale cereale, post-emergence + 1 l/ha Rustica Öl, scale 0-100
Text: (§1) The seeds of the test plants were sown separately for each species.
(§2) The test period extended over 2 to 4 weeks.

Capsella bursa-pastoris = conditions: harmful plant Capsella bursa-pastoris; post-emergence + 1 l/ha Rustica Öl; 15 g/ha a.s.; scale 0-100
Text: as §1, §2

Papaver rhoeas = conditions: harmful plant Papaver rhoeas; post-emergence; 20 g/ha a.s.; scale 0-100
Text: as §1, §2

Lamium purpureum = conditions: harmful plant Lamium purpureum; post-emergence + 1 l/ha Rustica Öl; 10 g/ha a.s.; scale 0-100
Text: as §1, §2

Thiaspi arvense = conditions: harmful plant Thiaspi arvense; post-emergence + 1 l/ha Rustica Öl; 5 g/ha a.s.; scale 0-100
Text: as §1, §2

Stellaria media = conditions: harmful plant Stellaria media, scale 0-100
Text: as §1, §2

Polygonum convolvulus = conditions: harmful plant Polygonum convolvulus, scale 0-100
Text: as §1, §2

Glycine max = conditions: useful plant Glycine max, pre-emergence, aqueous SC 100 g/l, scale 0-100
Text: as §1, §2

Kochia scoparia = conditions: harmful plant Kochia scoparia; post-emergence; 20 g/ha a.s.; scale 0-100
Text: as §1, §2

Pharbitis purpurea = conditions: harmful plant Pharbitis purpurea; pre-emergence; 6.25 g/ha a.s.; aqueous SC; scale 0-100
Text: as §1, §2

Galium aparine = conditions: harmful plant Galium aparine; post-emergence + 1 l/ha Rustica Öl; 15 g/ha a.s.; scale 0-100
Text: as §1, §2

Chenopodium album = conditions: harmful plant Chenopodium album; post-emergence + 1 l/ha Rustica Öl; 15 g/ha a.s.; scale 0-100
Text: as §1, §2

Ambrosia elatior = conditions: harmful plant Ambrosia elatior; pre-emergence; 12.5 g/ha a.s.; aqueous SC; scale 0-100
Text: as §1, §2

Thlaspi arvense = conditions: harmful plant Thlaspi arvense; post-emergence; 10 g/ha a.s.; scale 0-100
Text: as §1, §2

Mercurialis annua = conditions: harmful plant Mercurialis annua; pre-emergence; 6.25 g/ha a.s.; aqueous SC; scale 0-100
Text: as §1, §2

Veronica persicaria = conditions: harmful plant Veronica persicaria; post-emergence; 15 g/ha a.s.; scale 0-100
Text: as §1, §2

[1] = system: Salsola kali ssp. ruthenica; conditions: harmful plant Salsola kali ssp. ruthenica; post-emergence; 20 g/ha a.s.; scale 0-100
Text: as §1, §2

Triticum aestivum = conditions: useful plant Triticum aestivum; post-emergence + 1 l/ha Rustica Öl; 20 g/ha a.s.; scale 0-100
Text: as §1, §2

Euphorbia heterophylla = conditions: harmful plant Euphorbia heterophylla, pre-emergence, aqueous SC, scale 0-100
Text: as §1, §2

Sida spinosa = conditions: harmful plant Sida spinosa; pre-emergence; 12.5 g/ha a.s.; aqueous SC; scale 0-100
Text: as §1, §2

Hordeum vulgare = conditions: useful plant Hordeum vulgare, scale 0-100
Text: as §1, §2

test plants = conditions: greenhouse tests, pre- and post-emergence, summary of Tables 4-6
Text: as §1, §2

Viola arvensis = conditions: harmful plant Viola arvensis; post-emergence + 1 l/ha Rustica Öl; 5 g/ha a.s.; scale 0-100
Text: as §1, §2

Helianthus annuus = conditions: harmful plant Helianthus annuus; pre-emergence; 12.5 g/ha a.s.; aqueous SC; scale 0-100
Text: as §1, §2

Sinapis arvensis = conditions: harmful plant Sinapis arvensis; post-emergence; 10 g/ha a.s.; scale 0-100
Text: as §1, §2

Matricaria inodora = conditions: harmful plant Matricaria inodora; post-emergence + 1 l/ha Rustica Öl; 5 g/ha a.s.; scale 0-100
Text: as §1, §2

[2] = post-emergence + 1 l/ha Rustica Öl, 5 g/ha a.s.
[3] = pre-emergence, 12.5 g/ha a.s., aqueous SC
[4] = pre-emergence, 25 g/ha a.s., aqueous SC
[5] = post-emergence + 1 l/ha Rustica Öl, 15 g/ha a.s.
[6] = post-emergence + 1 l/ha Rustica Öl, 20 g/ha a.s.

| SMILES | Damage [%] (Secale cereale; 10 g/ha a.s.) | Damage [%] (Secale cereale; 15 g/ha a.s.) | Damage [%] (Secale cereale; 20 g/ha a.s.) | Damage [%] (Capsella bursa-pastoris) | Damage [%] (Papaver rhoeas) | Damage [%] (Lamium purpureum) | Damage [%] (Thiaspi arvense) | Damage [%] (Stellaria media; [2]) | Damage [%] (Stellaria media; [3]) | Damage [%] (Stellaria media; [4]) | Damage [%] (Polygonum convolvulus; [5]) | Damage [%] (Polygonum convolvulus; post-emergence, 20 g/ha a.s.) | Damage [%] (Glycine max; 12.5 g/ha a.s.) | Damage [%] (Glycine max; 25 g/ha a.s.) | Damage [%] (Kochia scoparia) | Damage [%] (Pharbitis purpurea) | Damage [%] (Galium aparine) | Damage [%] (Chenopodium album) | Damage [%] (Ambrosia elatior) | Damage [%] (Thlaspi arvense) | further results |
| --- | --- | --- | --- | --- | --- | --- | --- | --- | --- | --- | --- | --- | --- | --- | --- | --- | --- | --- | --- | --- | --- |
| CC(C)N(C)S(=O)(=O)NC(=O)c1cc(-n2c(=O)cc(C(F)(F)F)n(C)c2=O)c(F)cc1Cl (single isomer, unassigned) [Form II, 2-chloro-5-[3,6-dihydro-3-methyl-2,6-dioxo-4-(trifluoromethyl)-1-(2H)-pyrimidinyl]-4-fluoro-N-[[methyl(1-methylethyl)amino]sulfonyl]benzamide] | 5 | 10 | 15 | 100 | 70 | 90 | 100 | 100 | 85 | 100 | 100 | 100 | 10 | 30 | 100 | 100 | 100 | 100 | 75 | 98 | Damage [%] (Mercurialis annua): 100%; Damage [%] (Veronica persicaria): 80%; Damage [%] [1]: 100%; Damage [%] (Triticum aestivum): 15%; Damage [%] (Euphorbia heterophylla; 6.25 g/ha a.s.): 70%; Damage [%] (Euphorbia heterophylla; 12.5 g/ha a.s.): 100%; Damage [%] (Sida spinosa): 100%; Damage [%] (Hordeum vulgare; [5]): 10%; Damage [%] (Hordeum vulgare; [6]): 20%; Damage [%] (Hordeum vulgare; post-emergence, 15 g/ha a.s.): 0%; Damage [%] (Hordeum vulgare; post-emergence, 20 g/ha a.s.): 0%; herbicidal activity in comparison with form I (test plants): markedly improved herbicidal activity; tolerance by the crop plant in comparison with form I (test plants): the same or better tolerance by the crop plant; Damage [%] (Viola arvensis): 90%; Damage [%] (Helianthus annuus): 100%; Damage [%] (Sinapis arvensis): 80%; Damage [%] (Matricaria inodora): 100% |
| CC(C)N(C)S(=O)(=O)NC(=O)c1cc(-n2c(=O)cc(C(F)(F)F)n(C)c2=O)c(F)cc1Cl (single isomer, unassigned) [Form I, 2-chloro-5-[3,6-dihydro-3-methyl-2,6-dioxo-4-(trifluoromethyl)-1-(2H)-pyrimidinyl]-4-fluoro-N-[[methyl(1-methylethyl)amino]sulfonyl]benzamide, reference compound] | 10 | 10 | 15 | 80 | 20 | 60 | 70 | 50 | 65 | 75 | 70 | 40 | 30 | 70 | 45 | 70 | 75 | 70 | 60 | 30 | Damage [%] (Mercurialis annua): 40%; Damage [%] (Veronica persicaria): 40%; Damage [%] [1]: 80%; Damage [%] (Triticum aestivum): 15%; Damage [%] (Euphorbia heterophylla; 6.25 g/ha a.s.): 40%; Damage [%] (Euphorbia heterophylla; 12.5 g/ha a.s.): 95%; Damage [%] (Sida spinosa): 90%; Damage [%] (Hordeum vulgare; [5]): 15%; Damage [%] (Hordeum vulgare; [6]): 20%; Damage [%] (Hordeum vulgare; post-emergence, 15 g/ha a.s.): 5%; Damage [%] (Hordeum vulgare; post-emergence, 20 g/ha a.s.): 5%; Damage [%] (Viola arvensis): 40%; Damage [%] (Helianthus annuus): 70%; Damage [%] (Sinapis arvensis): 50%; Damage [%] (Matricaria inodora): 65% |
